In PubChem BioAssay AID782 (Emory University Molecular Libraries Screening Center, 2007) one finds inhibition data, which are given here for eleven molecules.

By UniProt entry, the sequences of proteins in these tests, tags left out.
UniProt P63073, whole entry, looked up: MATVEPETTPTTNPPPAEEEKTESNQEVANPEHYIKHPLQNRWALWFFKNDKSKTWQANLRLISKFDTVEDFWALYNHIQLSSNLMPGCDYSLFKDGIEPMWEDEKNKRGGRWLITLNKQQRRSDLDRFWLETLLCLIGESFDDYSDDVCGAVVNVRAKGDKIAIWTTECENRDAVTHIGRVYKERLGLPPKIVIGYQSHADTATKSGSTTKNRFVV
UniProt Q04637, whole entry, looked up: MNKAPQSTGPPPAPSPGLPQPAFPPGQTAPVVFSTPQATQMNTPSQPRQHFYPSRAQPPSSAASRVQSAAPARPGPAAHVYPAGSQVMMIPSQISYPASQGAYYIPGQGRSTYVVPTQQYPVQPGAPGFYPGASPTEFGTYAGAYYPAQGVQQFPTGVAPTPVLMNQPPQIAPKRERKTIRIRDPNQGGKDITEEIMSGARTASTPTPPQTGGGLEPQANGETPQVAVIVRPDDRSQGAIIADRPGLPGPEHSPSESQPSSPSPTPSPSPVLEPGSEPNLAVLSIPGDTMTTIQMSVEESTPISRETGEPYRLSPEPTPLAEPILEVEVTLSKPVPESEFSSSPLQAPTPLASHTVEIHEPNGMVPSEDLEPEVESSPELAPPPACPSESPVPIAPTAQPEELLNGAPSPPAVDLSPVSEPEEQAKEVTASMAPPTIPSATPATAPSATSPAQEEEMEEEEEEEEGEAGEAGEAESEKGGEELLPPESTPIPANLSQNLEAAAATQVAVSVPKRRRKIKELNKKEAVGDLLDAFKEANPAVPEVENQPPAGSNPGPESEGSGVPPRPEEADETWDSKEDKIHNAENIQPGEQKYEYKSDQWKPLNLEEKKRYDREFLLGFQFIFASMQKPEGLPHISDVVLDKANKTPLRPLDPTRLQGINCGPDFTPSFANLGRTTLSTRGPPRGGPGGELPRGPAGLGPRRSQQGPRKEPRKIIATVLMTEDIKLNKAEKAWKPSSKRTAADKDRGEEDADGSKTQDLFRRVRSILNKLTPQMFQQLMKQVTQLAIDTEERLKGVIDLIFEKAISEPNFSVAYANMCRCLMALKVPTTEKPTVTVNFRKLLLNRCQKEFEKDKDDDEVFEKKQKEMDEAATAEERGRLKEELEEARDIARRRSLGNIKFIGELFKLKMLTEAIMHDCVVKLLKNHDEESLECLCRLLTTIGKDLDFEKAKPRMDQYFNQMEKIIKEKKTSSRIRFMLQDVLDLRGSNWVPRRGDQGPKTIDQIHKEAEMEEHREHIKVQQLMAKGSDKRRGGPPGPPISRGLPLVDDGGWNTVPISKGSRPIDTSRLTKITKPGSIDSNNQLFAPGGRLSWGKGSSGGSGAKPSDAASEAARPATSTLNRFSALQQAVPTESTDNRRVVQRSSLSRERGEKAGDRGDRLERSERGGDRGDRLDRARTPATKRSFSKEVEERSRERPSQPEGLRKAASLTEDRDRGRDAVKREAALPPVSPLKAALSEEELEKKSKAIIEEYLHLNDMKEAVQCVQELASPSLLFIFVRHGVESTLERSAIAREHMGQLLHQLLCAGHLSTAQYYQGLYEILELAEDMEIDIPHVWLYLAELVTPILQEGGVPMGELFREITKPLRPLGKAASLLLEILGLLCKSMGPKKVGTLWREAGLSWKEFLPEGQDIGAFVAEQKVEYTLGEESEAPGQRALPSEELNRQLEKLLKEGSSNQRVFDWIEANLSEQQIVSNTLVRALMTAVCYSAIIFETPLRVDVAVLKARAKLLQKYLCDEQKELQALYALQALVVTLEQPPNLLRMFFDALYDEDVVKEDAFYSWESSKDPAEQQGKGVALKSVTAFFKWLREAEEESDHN

Structures are written as SMILES. The list shows a part of the results, in another mix than the full data. Some of these compounds have results that are not shown, active ones among them. The source made the active and inactive calls.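 The calls were made as follows: active = inhibition above about 30% (limit read from the data); inactive = the rest.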

The experiment addresses Eukaryotic translation initiation factor 4E (Mus musculus) + Eukaryotic translation initiation factor 4 gamma 1 (Homo sapiens) (UniProt P63073+Q04637). The experiment in a line: blockers of eIF4G binding by eIF4E – biochemical, uHTS, TR-FRET, eIF4GI fragment, primary screen (AID 782).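 Also: 0% = full FRET control wells and 100% = background wells lacking eIF4GI fragment.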 Particulars: TR-FRET eIF4E-eIF4GI(517-606) binding, 2 h; at 21.7 µM; stronger effect = higher value.
Usually inhibition stands for the relative decrease from the control value, in per cent. For the molecule `COc1cccc(C(=O)NCC2(N3CCCCC3)CCCCC2)c1`, the inhibition was inactive: 2.82%.

Consider `COc1ccc(Br)c(C(=O)NCC2(N3CCCCC3)CCCCC2)c1`, for which the inhibition is inactive: -0.51%.

Regarding `CN(C)c1cccc(C(=O)NCC2(N(C)C)CCCCC2)c1`, the inhibition is inactive: -1.07%.

In the case of `O=C(OC1CN2CCC1CC2)C(CO)(c1ccccc1)c1ccccc1` (stereo unspecified), the inhibition was inactive: -2.72%.

For `CC(C)N1C(=O)CC2(CCN(CCOC(=O)C(O)(c3ccccc3)c3ccccc3)CC2)C1=O`, the inhibition was inactive: 0.48%.

Regarding `CCN(CC)CC(C)C(C)OC(=O)C(O)(c1ccccc1)c1ccccc1` (stereo unspecified), the inhibition was inactive: 1.62%.

As for `O=C(NCC1(N2CCCCC2)CCCCC1)c1cc([N+](=O)[O-])ccc1Cl`, the inhibition was inactive: 1.7%.

In the case of `C=CCN1CCN(CCOC(=O)C(O)(c2ccccc2)c2ccccc2)CC1`, the inhibition was inactive: 3.8%.

For `CCN1CCCC(OC(=O)C2(O)c3ccccc3C=Cc3ccccc32)C1` (stereo unspecified), the inhibition is inactive: -2.79%.

Regarding `CN(C)C1CCCC1OC(=O)C(O)(c1ccccc1)c1ccccc1` (stereo unspecified), the inhibition is inactive: -0.36%.

Take `Cc1ccccc1C(=O)NCC1(N2CCCCC2)CCCCC1`: the inhibition is inactive: -2.21%.
